Values quoted from earlier work, collected in PMC6028903, “Solubility Thermodynamics of CyMe 4 -BTBP in Various Diluents Mixed with TBP” (Journal of Solution Chemistry, 2018).

Experiments:
[1] = literature; cited from earlier work
[2] = 298 K; cited from earlier work
[3] = literature; cited from earlier work; remark: listed apart in the source
[4] = literature; cited from earlier work; remark: listed apart in the source

SMILES: CCCCOP(=O)(OCCCC)OCCCC
- Density [1]: 0.97^b g · cm ^-3
- Solvent in water [2]: 0.039^b wt%
- Water in solvent [2]: 4.67^b wt%
- Surface tension [3]: 27.6^c mN · m ^-1
- Flash point [4]: 419 KC^e

Marks after values point to notes of the source that are not given here.
